Biological target: T1, human PPARγ ligand-binding domain (Homo sapiens, UniProt P37231)
T1 construct: The kit uses the human-derived recombinant PPARγ LBD tagged with an N-terminal GST-tag; purchased Invitrogen
Assay: PolarScreen PPARγ-Competitor fluorescence polarization ligand binding assay

Protein sequences, listed by entry. Tags and fused reporters are not part of them. Residues count along the entry.
UniProt P37231, 238-503 limits assumed: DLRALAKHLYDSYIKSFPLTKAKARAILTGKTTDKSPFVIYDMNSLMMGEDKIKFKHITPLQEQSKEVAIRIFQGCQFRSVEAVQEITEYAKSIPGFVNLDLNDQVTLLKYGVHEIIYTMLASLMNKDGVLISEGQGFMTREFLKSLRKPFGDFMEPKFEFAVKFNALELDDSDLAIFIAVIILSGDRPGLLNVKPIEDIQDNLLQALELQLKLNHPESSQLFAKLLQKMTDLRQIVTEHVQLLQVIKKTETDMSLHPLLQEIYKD

SMILES: CN(CCOc1ccc(CC2SC(=O)NC2=O)cc1)c1ccccn1 (stereo not shown) [Rosiglitazone, rosiglitazone, reference compound]
- inhibition of the binding between the PPARγ LBD and PPARγ Green probe: completely inhibit

Reference: paper PMC4314249, “Characterizing the Peroxisome Proliferator-Activated Receptor (PPARγ) Ligand Binding Potential of Several Major Flame Retardants, Their Metabolites, and Chemical Mixtures in House Dust” (Environmental Health Perspectives, 2014)
